Experiments:
[1] = test system: HER2-positive breast cancer cells SKBR3; assay: MTS cell-based cytotoxicity / cell inhibition assay; details: SK-BR-3 cells, 72 hours incubation, FIG. 9
Excerpt: HER2-positive breast cancer cells SKBR3 were used to assess the cytotoxicity of the homogeneous DAR 2 T-MMAE (trastuzumab conjugated to MMAE) previously obtained. Its biological activity was compared to an in-house heterogeneous DAR 4 T-MMAE (control) using an in vitro MTS cell-based assay. SK-BR-3 cells at the logarithmic growth phase were washed with sterile PBS 1x (HyClone), treated with trypsin (Sigma), re-suspended in 10% Fetal Bovine Serum (Sigma) DMEM medium (Sigma) with cell density at 2x10^5 cells / ml and seeded in a 96-well cell culture plate (Corning) by applying 50 µL of cell suspension per well. The plates were incubated at 37°C in a humidified 5% CO2 incubator for 24 hours. Next, samples to be analyzed were diluted to the concentration range to be tested and 50 µL were applied to the cell culture wells under sterile conditions by using decreasing sample concentrations. An entire cell culture plate was required to analyze 1 sample because 7 replicates were analyzed per concentration. The last row of each plate was used as control, which consisted of cells in medium without sample to be tested. The plates were incubated at 37°C in a humidified 5% CO2 incubator for 72 hours. After incubation, each well was treated with 20 µL MTS solution (Promega, WI, USA) followed by incubation for 3 hours. The absorbance at 405 nm was measured with a Labtech LT-4000 microplate reader.

[2] = test system: BT474 human breast cancer cells; assay: Tumor growth inhibition in orthotopic breast cancer model; assay type: in vivo, athymic nude mice
Method: The efficacy of the ADC from EXAMPLE 4 in tumor growth inhibition was tested in an orthotopic model of human BT747 breast cancer cells in athymic nude mice.
BT474 human breast cancer cells were inoculated i.m.f.p into the right abdominal mammary fat pad in athymic nude mice. Once tumors were established, intravenous treatment with the ADC or the vehicle was started in a 2-dose administration. Thereafter, tumor volume, body weight and the appearance of clinical adverse effects were monitored along time. At the end time point, mammary primary tumor and main organs (liver, kidneys, spleen, lungs and heart) were excised and collected.

Homogeneous T-MMAE DAR 2
antiproliferative effect on the target cells (% Proliferation) [1]: had an antiproliferative effect
Tumor Volume versus vehicle ([2]; day 8, before the second ADC dose, T-test p = 0.0003, FIG. 10): much smaller volumes
animals showing measurable tumors ([2]; end-point (day 23), intravenous, 2-dose administration, vehicle group 100%): 33%
efficacy of treatment in tumor growth inhibition ([2]; intravenous, 2-dose administration, monitored to day 23, FIG. 10): extremely effective
